Results on one compound are retold here after publication PMC2809336, “Antidepressant Interactions with the NMDA NR1-1b Subunit” (Journal of Biophysics, 2008).

This experiment has as its target T1, NMDA NR1-1b S1S2 domain (Rattus norvegicus, UniProt P35439).
T1 construct: (His)8-TSG-LVPRG(thrombin cut site)-S1(394-544)-GT-S2(663-800); (His)8-TSG-LVPRG (His8 tag with thrombin cut site) (N); made in house; host or cells: E. coli Origami B(DE3)
Briefly: Extrinsic ANS fluorescence. The class given is binding. Conditions: ANS 1 : 1 with 5.29 μM NR1-1b S1S2, excitation 380 nm; drug concentrations as in Figure 4. On the procedure: Extrinsic fluorescence studies were performed in a Cary Ec-lipse fluorometer at 25°C. All emission scans were acquired from 400 to 600 nm after excitation at 380 nm with 20 nm slit widths for emission and excitation in a 10 mm-path-length cell. Before data acquisition, samples were incubated for thirty seconds in the sample holder at 25°C. Blanks were collected both for the antidepressants and the NR1-1b S1S2 domain. Three emission spectra of identicallyprepared samples were averaged for each plot. 8-Anilino-1-naphthalenesulfonic acid (ANS, TCI America), in a 1 : 1 molar ratio, was added to 5.29 μM of the NR1-1b S1S2 domain premixed with antidepressant (at final concentrations as above for intrinsic quenching studies in addition to the SSRIs fluoxetine (8.62 μM) and fluvoxamine (2.81 mM) and the SNRI venlafaxine (29.07 μM)). As with all intrinsic assays, total methanol concentration was kept at 1.8%. Plots of intensity versus wavelength were constructed from averaged emission spectra.

`CNCCCN1c2ccccc2CCc2ccccc21` [desipramine]: the “ANS emission spectrum of the NR1-1b S1S2 complex versus ANS bound to apo S1S2 (binding)” value was “significantly different”.
